{"sequences": {"note": "Protein sequences, listed by entry. Tags and fused reporters are not part of them. Lines headed by an entry give the natural chain unless they say otherwise; changes in a name come on top.", "UniProt Q13555": "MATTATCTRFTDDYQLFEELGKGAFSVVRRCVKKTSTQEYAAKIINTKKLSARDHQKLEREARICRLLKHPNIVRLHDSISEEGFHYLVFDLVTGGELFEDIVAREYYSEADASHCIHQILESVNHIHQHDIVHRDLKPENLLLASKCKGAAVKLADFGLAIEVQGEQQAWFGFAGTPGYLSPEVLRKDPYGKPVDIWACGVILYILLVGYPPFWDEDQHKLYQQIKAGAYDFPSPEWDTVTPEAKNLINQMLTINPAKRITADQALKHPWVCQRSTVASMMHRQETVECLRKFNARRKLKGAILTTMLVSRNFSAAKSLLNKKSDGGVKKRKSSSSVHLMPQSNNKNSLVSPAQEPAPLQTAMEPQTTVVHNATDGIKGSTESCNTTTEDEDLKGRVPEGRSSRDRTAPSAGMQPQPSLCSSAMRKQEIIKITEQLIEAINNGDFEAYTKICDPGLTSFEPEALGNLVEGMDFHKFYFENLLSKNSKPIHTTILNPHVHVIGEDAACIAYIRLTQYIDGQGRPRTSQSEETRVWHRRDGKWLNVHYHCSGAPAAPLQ"}, "source": "patent US20240307372A1", "about": "“COMPOSITIONS AND METHODS TO IMPROVE BENEFIT OF SUBOPTIMALLY ADMINISTERED THERAPEUCTICS FOR THE TREATMENT OF BENIGN AND NEOPLASTIC DISEASES, INFECTIONS, INFLAMMATORY, METABOLIC AND IMMUNOLOGIAL DISEASES” (priority 2023, published 2024)", "molecular_target": "CAMKII gamma (Homo sapiens, UniProt Q13555)", "test": "CAMKII gamma kinase activity, ADP Glo (Promega)", "note": "Values joined by “and” are separate entries in the source; they are usually repeats but may differ in a detail not shown here. Equal entries are not always repeated.", "data": [{"molecule": "CN[C@@H]1C[C@H]2O[C@@](C)([C@@H]1OC)n1c3ccccc3c3c4c(c5c6ccccc6n2c5c31)C(=O)NC4", "note": "[Staurosporin, reference compound]", "values": [{"measurement": "% DMSO", "setting": "10 nM, 10 uM ATP", "result": 21, "unit": "%"}, {"measurement": "% inhibition", "setting": "10 nM, 10 uM ATP", "result": 79.0, "unit": "%"}, {"measurement": "CamKIIγ activity, mean", "setting": "10 nM, 10 uM ATP", "result": 0.915, "unit": "units"}, {"measurement": "CamKIIγ activity, units (duplicates)", "setting": "10 nM, 10 uM ATP", "result": "0.93 units and 0.9 units"}, {"measurement": "% inhibition", "setting": "10 nM, 10 uM ATP, listed as staurosporin", "result": 79, "unit": "%"}, {"measurement": "% DMSO", "setting": "10 nM, 50 uM ATP", "result": 59, "unit": "%"}, {"measurement": "% inhibition", "setting": "10 nM, 50 uM ATP", "result": 41, "unit": "%"}, {"measurement": "CamKIIγ activity, mean", "setting": "10 nM, 50 uM ATP", "result": 7.285, "unit": "units"}, {"measurement": "% DMSO", "setting": "100 nM, 10 uM ATP", "result": 5, "unit": "%"}, {"measurement": "% inhibition", "setting": "100 nM, 10 uM ATP", "result": 95.4, "unit": "%"}, {"measurement": "CamKIIγ activity, mean", "setting": "100 nM, 10 uM ATP", "result": 0.2, "unit": "units"}, {"measurement": "CamKIIγ activity, units (duplicates)", "setting": "100 nM, 10 uM ATP", "result": "0.25 units and 0.15 units"}, {"measurement": "% inhibition", "setting": "100 nM, 10 uM ATP, listed as staurosporin", "result": 95, "unit": "%"}, {"measurement": "% DMSO", "setting": "100 nM, 50 uM ATP", "result": 5, "unit": "%"}, {"measurement": "% inhibition", "setting": "100 nM, 50 uM ATP", "result": 95, "unit": "%"}, {"measurement": "CamKIIγ activity, mean", "setting": "100 nM, 50 uM ATP", "result": 0.635, "unit": "units"}, {"measurement": "CamKIIγ activity, units (duplicates)", "setting": "100 nM, 50 uM ATP", "result": "0.67 units and 0.6 units"}, {"measurement": "CAMKII gamma kinase activity inhibition (in words)", "setting": "10 or 50 uM ATP", "result": "effective as a positive control"}]}]}
